Assay results reported in ChEMBL document CHEMBL4251566 (Eur J Med Chem, 2018).

Target: T1, Tyrosine-protein kinase JAK3 (Homo sapiens) (UniProt P52333)
T1 sequence (whole entry): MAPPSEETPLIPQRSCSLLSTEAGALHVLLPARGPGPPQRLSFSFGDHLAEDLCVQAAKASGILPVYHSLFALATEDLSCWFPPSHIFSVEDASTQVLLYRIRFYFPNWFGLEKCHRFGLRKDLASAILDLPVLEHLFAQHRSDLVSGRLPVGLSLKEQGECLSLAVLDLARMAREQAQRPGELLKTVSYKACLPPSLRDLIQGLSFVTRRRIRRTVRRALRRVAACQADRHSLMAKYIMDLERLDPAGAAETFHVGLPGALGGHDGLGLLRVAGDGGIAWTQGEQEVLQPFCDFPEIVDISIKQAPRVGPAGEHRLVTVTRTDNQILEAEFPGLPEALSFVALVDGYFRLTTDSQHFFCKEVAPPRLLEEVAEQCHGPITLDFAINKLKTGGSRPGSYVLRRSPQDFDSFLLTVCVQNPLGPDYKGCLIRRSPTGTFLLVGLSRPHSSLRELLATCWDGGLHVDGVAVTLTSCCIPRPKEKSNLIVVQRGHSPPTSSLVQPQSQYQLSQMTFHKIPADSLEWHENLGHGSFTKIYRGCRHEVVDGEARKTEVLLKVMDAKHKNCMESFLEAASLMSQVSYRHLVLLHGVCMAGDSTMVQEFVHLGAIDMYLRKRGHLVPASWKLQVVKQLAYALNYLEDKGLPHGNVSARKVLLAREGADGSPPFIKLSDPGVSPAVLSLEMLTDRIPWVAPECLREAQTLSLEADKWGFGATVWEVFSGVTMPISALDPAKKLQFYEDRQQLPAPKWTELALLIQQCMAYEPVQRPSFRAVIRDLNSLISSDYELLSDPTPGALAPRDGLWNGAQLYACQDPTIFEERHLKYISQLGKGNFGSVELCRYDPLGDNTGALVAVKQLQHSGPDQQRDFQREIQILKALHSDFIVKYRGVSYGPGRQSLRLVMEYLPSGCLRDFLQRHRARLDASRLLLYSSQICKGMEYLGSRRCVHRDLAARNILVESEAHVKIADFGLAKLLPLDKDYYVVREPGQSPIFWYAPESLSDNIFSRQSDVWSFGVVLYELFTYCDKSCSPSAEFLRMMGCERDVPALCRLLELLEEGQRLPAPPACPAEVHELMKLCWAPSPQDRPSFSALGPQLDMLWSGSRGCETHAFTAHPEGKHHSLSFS
Settings: 10 uM

C=CC(=O)N1CCC[C@@H](n2nc(-c3ccc(Oc4ccccc4)cc3)c3c(N)ncnc32)C1 [IBRUTINIB]
inhibition: Active

Active and inactive are the calls of the source. The rule behind the calls is not given here.
